Assay results published in publication PMC10246557, “Kinetic and inhibition studies on human Jumonji-C (JmjC) domain-containing protein 5” (RSC Chemical Biology, 2023).

Chains of the proteins cited; added tags and fusions are not shown.
UniProt Q8N371, whole entry: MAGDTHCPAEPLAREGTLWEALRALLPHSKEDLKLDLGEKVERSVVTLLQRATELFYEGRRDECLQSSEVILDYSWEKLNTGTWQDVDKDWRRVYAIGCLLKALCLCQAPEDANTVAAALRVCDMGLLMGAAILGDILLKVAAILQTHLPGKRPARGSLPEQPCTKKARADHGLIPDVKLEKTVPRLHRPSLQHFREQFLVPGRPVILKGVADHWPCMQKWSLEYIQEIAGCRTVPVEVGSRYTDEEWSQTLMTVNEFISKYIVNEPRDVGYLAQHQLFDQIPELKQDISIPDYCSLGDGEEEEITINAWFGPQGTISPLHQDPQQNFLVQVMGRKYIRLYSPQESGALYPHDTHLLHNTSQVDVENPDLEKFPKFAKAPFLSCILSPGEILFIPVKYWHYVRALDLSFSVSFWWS
UniProt B2RXH2, whole entry: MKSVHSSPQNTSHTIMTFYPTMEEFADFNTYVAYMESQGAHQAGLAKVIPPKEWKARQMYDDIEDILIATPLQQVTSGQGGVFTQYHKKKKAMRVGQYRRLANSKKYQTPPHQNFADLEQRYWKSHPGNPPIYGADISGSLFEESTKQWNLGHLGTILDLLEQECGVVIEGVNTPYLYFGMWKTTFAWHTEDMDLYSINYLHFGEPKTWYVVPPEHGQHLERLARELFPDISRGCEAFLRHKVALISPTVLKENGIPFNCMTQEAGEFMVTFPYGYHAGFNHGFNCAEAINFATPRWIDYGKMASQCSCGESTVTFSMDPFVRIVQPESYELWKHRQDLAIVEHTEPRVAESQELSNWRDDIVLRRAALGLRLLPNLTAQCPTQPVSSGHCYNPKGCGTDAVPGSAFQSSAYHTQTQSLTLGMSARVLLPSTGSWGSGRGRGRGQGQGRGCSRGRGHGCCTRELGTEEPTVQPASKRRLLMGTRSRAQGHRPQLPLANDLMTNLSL

How the values were obtained:
[1] = target: human JMJD5 (Homo sapiens, UniProt Q8N371); experiment: SPE-MS JMJD5 turnover and kinetic assay (RPS6_128–148 hydroxylation); type: biochemical; settings: absence of 2OG; JMJD5 0.15 μM, 2OG derivative 400 μM, Fe(II) 20 μM, RPS6_128–148 2.0 μM
[2] = target: human KDM4E (Homo sapiens, UniProt B2RXH2); experiment: KDM4E SPE-MS turnover and kinetic assay (H3 K9(me3) peptide demethylation); type: biochemical; settings: absence of 2OG; KDM4E 0.15 μM, 2OG derivative 330 μM, Fe(II) 50 μM, ARTAQTARK(me3)STGGIA 10.0 μM
[3] = test system: human FIH; settings: absence of 2OG; FIH 0.15 μM, 2OG derivative 330 μM, Fe(II) 50 μM, HIF-1α788–822 5.0 μM; cited from earlier work
[4] = test system: human AspH; settings: absence of 2OG; AspH 0.1 μM, 2OG derivative 330 μM, Fe(II) 50 μM, hFX-CP101–119 2.0 μM; cited from earlier work

CC(C)(C)CCC(CC(=O)O)C(=O)C(=O)O (stereo not drawn)
< 1%: JMJD5 (%): RPS6_128–148 hydroxylation with the compound as cosubstrate [1] | KDM4E (%): substrate demethylation with the compound as cosubstrate [2] | FIH (%): substrate hydroxylation with the compound as cosubstrate [3] | AspH (%): substrate hydroxylation with the compound as cosubstrate [4]

Cc1cc(C)cc(CC(CC(=O)O)C(=O)C(=O)O)c1 (stereo not drawn)
< 1%: JMJD5 (%): RPS6_128–148 hydroxylation with the compound as cosubstrate [1] | KDM4E (%): substrate demethylation with the compound as cosubstrate [2] | FIH (%): substrate hydroxylation with the compound as cosubstrate [3] | AspH (%): substrate hydroxylation with the compound as cosubstrate [4]

O=C(O)C(=O)c1cccc(C(=O)O)c1 [C00016]
< 1%: JMJD5 (%): RPS6_128–148 hydroxylation with the compound as cosubstrate [1] | KDM4E (%): substrate demethylation with the compound as cosubstrate [2] | FIH (%): substrate hydroxylation with the compound as cosubstrate [3] | AspH (%): substrate hydroxylation with the compound as cosubstrate [4]
